Target: Bruton's tyrosine kinase (Btk) (Homo sapiens, UniProt Q06187)

By UniProt entry, the sequences of proteins in these tests, tags left out. Residues count along the entry.
UniProt Q06187, 2-659: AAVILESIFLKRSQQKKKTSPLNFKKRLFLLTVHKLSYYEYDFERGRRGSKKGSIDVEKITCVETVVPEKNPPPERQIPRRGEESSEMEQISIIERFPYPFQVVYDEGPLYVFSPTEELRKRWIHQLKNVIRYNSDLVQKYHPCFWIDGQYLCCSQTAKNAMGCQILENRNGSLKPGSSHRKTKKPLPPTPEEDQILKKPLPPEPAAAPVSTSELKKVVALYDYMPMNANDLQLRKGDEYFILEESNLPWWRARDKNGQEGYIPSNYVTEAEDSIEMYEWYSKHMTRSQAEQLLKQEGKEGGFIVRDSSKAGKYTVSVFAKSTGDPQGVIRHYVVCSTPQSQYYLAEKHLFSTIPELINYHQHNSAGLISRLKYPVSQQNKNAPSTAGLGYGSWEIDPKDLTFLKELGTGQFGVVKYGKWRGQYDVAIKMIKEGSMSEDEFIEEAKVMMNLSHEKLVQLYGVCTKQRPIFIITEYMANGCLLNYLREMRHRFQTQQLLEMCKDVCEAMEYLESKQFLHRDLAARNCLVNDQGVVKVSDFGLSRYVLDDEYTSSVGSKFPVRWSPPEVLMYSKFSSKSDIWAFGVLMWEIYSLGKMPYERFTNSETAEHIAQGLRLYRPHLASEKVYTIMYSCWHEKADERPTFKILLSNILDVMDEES

Ibrutinib-SiR-COOH
IC50: 0.123 µM

— article PMC4772718 (Bioconjugate chemistry, 2015)
